Reference: patent US7927613B2, “Pharmaceutical co-crystal compositions” (University of South Florida, priority 2002, dated 2011)

Tests used:
[1] = Dissolution profile; type: physicochemical
From the text: In another aspect of the present invention, the dissolution profile of the API is modulated whereby the aqueous dissolution rate or the dissolution rate in simulated gastric fluid or in simulated intestinal fluid, or in a solvent or plurality of solvents is increased. Dissolution rate is the rate at which API solids dissolve in a dissolution medium. For APIs whose absorption rates are faster than the dissolution rates (e.g., steroids), the rate-limiting step in the absorption process is often the dissolution rate. Because of a limited residence time at the absorption site, APIs that are not dissolved before they are removed from intestinal absorption site are considered useless. Therefore, the rate of dissolution has a major impact on the performance of APIs that are poorly soluble. Because of this factor, the dissolution rate of APIs in solid dosage forms is an important, routine, quality control parameter used in the API manufacturing process. Dissolution rate=K S(Cs−C) where K is dissolution rate constant, S is the surface area, Cs is the apparent solubility, and C is the concentration of API in the dissolution medium. For rapid API absorption, Cs−C is approximately equal to Cs The dissolution rate of APIs may be measured by conventional means known in the art. […] Conditions under which the dissolution rate is measured is the same as discussed above The increase in dissolution may be further specified by the time the composition remains supersaturated before reaching equilibrium solubility.

[2] = vs. celecoxib sodium (FIG. 29)
[3] = over previously known forms of carbamazepine; molar solubility, aqueous solutions
[4] = as compared to the API
[5] = vs. itraconazole free base (FIG. 28)

For “itraconazole and succinic acid [Itraconazole: succinic acid]”, the dissolution profile [1, 5] was “modulated dissolution profile”.
In the case of “celecoxib:nicotinamide [Celecoxib: nicotinamide]”, the dissolution profile ([1]; vs. celecoxib free acid (FIG. 27)) is reported as “modulated dissolution profile” and the hygroscopicity profile [2] is reported as “improved hygroscopicity profile”.
For “Carbamazepine:saccharin (Form II) [carbamazepine/saccharin]”, the solubility [3] was “improved solubility over previously known forms of carbamazepine”.
With “carbamazepine:saccharin [carbamazepine and saccharin]” the form diversity [4] was “reduced form diversity as compared to the API”.
With “itraconazole and tartaric acid [itraconazole:tartaric acid]” the dissolution profile [1, 5] was “modulated dissolution profile”.
